Test results taken from patent US20130203790A1, “SULFUR-CONTAINING COMPOUNDS AS ANTI-PROLIFERATIVE AGENTS” (221076 ONTARIO INC., priority 2011, published 2013).

Target: T1, thrombin (thrombin-mediated conversion of fibrinogen to fibrin) (Homo sapiens, UniProt P00734)
T1 construct: purchased Enzyme Research Laboratories
Experiment: Coagulation assay, microtiter plate turbidity (clot formation, thrombin clot time)
Format: biochemical
Protocol: Coagulation and fibrinolysis were studied simultaneously in a 96-well microtiter plate-based assay system. Varying concentrations of drug in 50 μl buffer or an equivalent volume of saline were added to the wells. To this was added 100 μl of 6 μM fibrinogen, 1 μM Glu-plasminogen and 4 mM CaCl2. Reactions were initiated by addition of 50 μl of buffer containing 2 nM t-PA and 20 nM thrombin. […] As positive controls, hirudin or D-Phe-Pro-Arg chloromethylketone (PPACK) was used in place of the subject compounds. Plates were incubated at 23° C. for 1 h with constant shaking and turbidity was monitored continuously at 405 nm. Clot times and lysis times were determined using instrument soft wave as the times to half maximal increase and decrease in turbidity, respectively. Data are expressed as the mean±SEM of three experiments, each done in triplicate.
Materials used: • Fibrinogen and thrombin were from Enzyme Research Laboratories and t-PA was from Genentech. • Glu-plasminogen was isolated from human plasma as we have described. • Hirudin and PPACK were from Behring AG and Calbiochem, respectively. • The plate reader was from Molecular Devices.

[1] = tested at 0-100 nM, 5 nM thrombin

Substance: D-Phe-Pro-Arg chloromethylketone [PPACK]
- effect on clot formation and lysis profiles (compounds of the invention up to 400 μM, hirudin and PPACK as positive controls, 23° C., turbidity at 405 nm): inhibited clot formation and lysis
- concentration causing complete inhibition of clotting [1]: 50 nM
- lowest concentration with measurable effect on clotting [1]: 6.25 nM
